Assay results published in patent US20210130420A1, “RECOMBINANT BINDING PROTEINS TARGETING HER2 AND SERUM ALBUMIN, AND THEIR USES” (Molecular Partners AG, priority 2016, published 2021).

Legend:
BT474 cells [1] = experiment: BT474 cell proliferation, BrdU-labeling; assay type: cell-based, human; details: single agent or on top of suboptimal Protein #21-His (2 nM) or Protein #21 (1 nM)
Protocol: Protein #21-His and Protein #23-His, were expressed and purified as described in Example 1. Effects of the recombinant binding proteins on BT474 cell proliferation were determined by measuring DNA synthesis using BrdU-labeling (BrdU, Cell Proliferation ELISA, Roche). Briefly, 10000 BT474 cells were seeded per well in a 96 well plate in 100 ul complete medium and incubated for 24 hours. Recombinant binding proteins or controls were added for an additional 72 hours. BrdU for cell labeling was added for the last 24 hours. Labeled (proliferating) cells were detected according to the manufactures protocol. The data were analyzed using the GraphPad prism software, plotting log [c] on the x-axis against OD450-602 nm on the y-axis. Data were fitted using a non-linear regression fit (log(antagonist) vs. response—Variable slope (four parameters)) deriving IC50 values. […]
Protein #21 and Protein #21-His were expressed and purified as described in Example 1. […] Briefly, effects on cell proliferation of Protein #21-His, other compounds, or Protein #21-His in combination with other compounds, were determined by measuring DNA synthesis using BrdU-labeling (BrdU, Cell Proliferation ELISA, Roche). […] Labeled (proliferating) cells were detected according to the manufactures protocol. The data were analyzed using the Graph Pad prism software (log [c] vs. OD450-602 nm plot). […]

BT474 cells [2] = experiment: Induction of apoptosis, Caspase 3/7 activation; assay type: cell-based, human; details: FIG. 7
Protocol: Induction of apoptosis by Protein #21 was determined by measuring Caspase3/7 activation using the Caspase 3/7-Glo systems (Promega, Switzerland). Briefly, 10000 BT474 cells were seeded per well in a 96 well plate in100 μl complete medium and incubated for 24 hours. Protein #21 and benchmarks were added for an additional 24 hours. Caspase Glo reagent was added according to the manufactures protocol for 1 hour. Caspase 3/7 activation was monitored by measuring luciferase activity. Alternatively induction of apoptosis was determined using the Cell Death Detection […] system (Roche, Switzerland). The assay was performed according to the manufactures protocol. Cell number and incubations times were similar to the Caspase Glo readout. Data were analyzed using the GraphPad prism software, plotting concentration on the x-axis against OD405/490 nm or relative light units (RLU; measured on a Tecan M-1000 reader) on the y-axis. Data were fitted using a non-linear regression fit (log(agonist) vs. response—Variable slope (four parameters)).

GXA3039 = experiment: Gastric cancer patient derived tumor xenograft mouse model GXA3039; assay type: in vivo; details: Protein #21 60 mg/kg, antibodies 10 mg/kg, every three days for 6 times
Protocol: Further, Protein #21 was expressed and purified as described in Example 1. […] All groups were dosed every three days for 6 times. Briefly, tumor fragments were obtained from xenografts in serial passage in nude mice. After removal from donor mice, tumors were cut into fragments (4-5 mm diameter) for subcutaneous implantation. Mice were randomized into groups when tumors reached a volume of approximately 100-120 mm^3. The day of randomization and treatment initiation is designated as day 0 in each experiment. Tumor growth was monitored by two-dimensional measurement with a caliper on the day of randomization and then twice weekly. Relative volumes of individual tumors (individual RTVs) for Day x were calculated by dividing the individual tumor volume on Day x (Tx) by the individual volume of the same tumor on Day 0 (TO) multiplied by 100%. Tumor inhibition for a particular day (T/C in %) was calculated from the ratio of the median RTV values of test versus control groups multiplied by 100%.

AKT [3] = experiment: Phospho-proteome mass spectrometry of BT474 cells; assay type: cell-based, human; details: 100 nM, 18 hours
From the text: (§1) Protein #21 was expressed and purified as described in Example 1. […] Cells were then subjected to a phospho-proteome mass-spectrometry analysis as described by Britton, D., et al. (Britton, D., Zen, Y., Quaglia, A., Selzer, S., Mitra, VI., Lössner, C., Jung, S., Bohm, G., Schmid, P., Prefot, P., Hoehle, C., Koncarevic, S., Gee, J., Nicholson, R., Ward, M., Castellano, L., Stebbing, J., Zucht, H. D., Sarker, D., Heaton, N., and Pike, I., 2014. PLOS One 9 (3), e90948). […] At other phosphorylation sites, phosphorylation is increased (772).

RAF = experiment: Phospho-proteome mass spectrometry of BT474 cells; assay type: cell-based, human; details: 100 nM, 18 hours
From the text: as §1

RPS6KB1/S6 Kinase = experiment: Phospho-proteome mass spectrometry of BT474 cells; assay type: cell-based, human; details: 100 nM, 18 hours
From the text: as §1

mTOR = experiment: Phospho-proteome mass spectrometry of BT474 cells; assay type: cell-based, human; details: 100 nM, 18 hours
From the text: as §1

AKT [4] = experiment: Phospho-site specific ELISA, BT474 cells; assay type: cell-based, human; details: 100 nM, 18 hours
HER3 = experiment: Phosphorylation state ELISA, BT474 cells; assay type: cell-based, human; details: 100 nM, 18 hours
HER1/EGFR = experiment: Phosphorylation state ELISA, BT474 cells; assay type: cell-based, human; details: 100 nM, 18 hours
Foxo3a protein [5] = experiment: Cellular levels of Foxo3a protein in BT474 cells; assay type: cell-based, human; details: compared to an exposure to PBS only
From the text: as §1
(§2) In this experiment, it was further observed that exposure of BT474 and NCI-N87 cells to Protein #21 increased the cellular levels of Foxo3a protein by 1.88 and 2.8-fold, respectively, when compared to an exposure to PBS only. […] It is known to the practitioner in the art, that Akt1 phosphorylates Foxo3a, resulting in the degradation of Foxo3a and promotion of cell survival. Inhibition of Act phosphorylation leads to stabilization of Foxo3a and thus increase in Foxo3a levels. At increased levels Foxo3a can translocate to the nucleus and induce apoptosis.

Foxo3a protein [6] = experiment: Cellular levels of Foxo3a protein in NCI-N87 cells; assay type: cell-based; details: compared to an exposure to PBS only
From the text: as §1, §2

MDA-MB175 cells = experiment: MDA-MB175 cell proliferation, BrdU-labeling; assay type: cell-based; details: single agent or on top of suboptimal Protein #21-His (4 nM) or Protein #21 (10 nM)
Protocol: Protein #21 and Protein #21-His were expressed and purified as described in Example 1. Standard BrdU cell proliferation assays were performed, well-known to the person skilled in the art. Briefly, effects on cell proliferation of Protein #21-His, other compounds, or Protein #21-His in combination with other compounds, were determined by measuring DNA synthesis using BrdU-labeling (BrdU, Cell Proliferation ELISA, Roche). Briefly, 10000 cells were seeded per well in a 96 well plate in 100 μl complete medium and incubated for 24 hours. Protein #21-His and/or compounds were added for an additional 72 hours. BrdU for cell labeling was added for the last 24 hours. Labeled (proliferating) cells were detected according to the manufactures protocol. The data were analyzed using the Graph Pad prism software (log [c] vs. OD450-602 nm plot). Data were fitted using a non-linear regression fit (log(antagonist) vs. response—variable slope (four parameters)).

Substance: Trastuzumab
- inhibition of BT474 cell proliferation, in words (BT474 cells [1]): only limited activity
- induction of apoptosis in BT474 cells (BT474 cells [2]): did not induce apoptosis
- inhibition of tumor growth, first experiment (GXA3039; GXA3039, FIG. 4C): less efficacious
- inhibition of tumor growth, second experiment (GXA3039; GXA3039, FIG. 4D): significantly less efficacious
- AKT S124 phosphorylation (AKT [3]): 0.9 fold change to PBS
- AKT S129 phosphorylation (AKT [3]): 1.04 fold change to PBS
- RAF S642 phosphorylation (RAF): 1.07 fold change to PBS
- RAF T631/T638/T640/T641/S642 phosphorylation (RAF): 0.77 fold change to PBS
- RPS6KB1/S6Kinase S441/T444/S447 phosphorylation (RPS6KB1/S6 Kinase): 0.88 fold change to PBS
- RPS6KB1/S6Kinase T444/S447 phosphorylation (RPS6KB1/S6 Kinase): 0.97 fold change to PBS
- mTOR S2448/S2454 phosphorylation (mTOR): 0.85 fold change to PBS
- AKT S473 phosphorylation (AKT [4]): 0.31 fold change to PBS
- HER3 Pan-Phospho-Tyrosine (HER3): 0.52 fold change to PBS
- HER1/EGFR Pan-Phospho-Tyrosine (HER1/EGFR): 0.53 fold change to PBS
- increase of cellular levels of Foxo3a protein (Foxo3a protein [5]): 1.14 fold
- increase of cellular levels of Foxo3a protein (Foxo3a protein [6]): 1.32 fold
- inhibition of MDA-MB175 cell proliferation, in words (MDA-MB175 cells): only limited activity
